The test system of the experiment is SKOV3. Nature of the experiment: SKOV3 ovarian tumor model, C4-27z CAR-T cells plus exogenous cytokines. In kind it is in vivo, NSG mice. The note with it: 5 μg daily i.p. for 7 days with 5×10^6 C4-27z CAR-T cells.

“IL-2: common γ-chain family cytokine, exogenous”: the “antitumor efficacy of cytokine in combination with CAR-T cell injection” value is “showed evidence of improving antitumor outcome”.
